EP2944190A1 (ETH Zurich, dated 2015)

Molecular target: T1, GBSS recombinant protein of Arabidopsis thaliana (lacking the predicted chloroplast transit peptide, amino … (Arabidopsis thaliana, UniProt Q9MAQ0 80-610))
T1 construct: mature; Expressed in E. coli and purified on Ni2+-NTA agarose; also called GBSS-His; AtGBSS; not shown: C-terminal His-tag from the pET24a+ vector
T1 sequence (looked up): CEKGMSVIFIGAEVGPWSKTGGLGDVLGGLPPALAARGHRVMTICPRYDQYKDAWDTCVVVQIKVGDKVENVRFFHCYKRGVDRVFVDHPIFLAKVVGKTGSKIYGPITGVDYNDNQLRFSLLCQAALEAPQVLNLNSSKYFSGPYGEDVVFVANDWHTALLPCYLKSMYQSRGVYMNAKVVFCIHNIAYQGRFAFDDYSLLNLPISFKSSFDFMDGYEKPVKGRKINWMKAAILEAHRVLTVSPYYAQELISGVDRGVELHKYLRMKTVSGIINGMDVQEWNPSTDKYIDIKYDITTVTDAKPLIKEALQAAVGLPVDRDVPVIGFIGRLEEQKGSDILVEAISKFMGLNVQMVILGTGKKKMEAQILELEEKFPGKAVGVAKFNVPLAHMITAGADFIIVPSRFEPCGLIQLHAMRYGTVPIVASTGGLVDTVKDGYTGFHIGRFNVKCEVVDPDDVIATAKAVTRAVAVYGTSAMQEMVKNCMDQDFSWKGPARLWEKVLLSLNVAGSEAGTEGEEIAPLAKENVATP
Test: Ni2+-NTA pull-down with recombinant proteins, immunoblot with anti-GST and anti-PentaHis

binding result: no binding (tested: 1 µg each)
B1: Free GST (glutathione-S-transferase) purified from cells harbouring the empty pGEX-4T-2 vector (other, UniProt P08515 1-218, looked up)
chain: MSPILGYWKIKGLVQPTRLLLEYLEEKYEEHLYERDEGDKWRNKKFELGLEFPNLPYYIDGDVKLTQSMAIIRYIADKHNMLGGCPKERAEISMLEGAVLDIRYGVSRIAYSKDFETLKVDFLSKLPEMLKMFEDRLCHKTYLNGDHVTHPDFMLYDALDVVLYMDPMCLDAFPKLVCFKKRIEAIPQIDKYLKSSKYIAWPLQGWQATFGGGDHPPK
notes: Control protein in the pull-down assay
